## scFv variants of Ab-14 (heavy chain) against a SARS-CoV-2 spike peptide

The measurements come from Li et al. 2023 (doi:10.1038/s41467-023-39022-2) through the FLAb antibody collection.

The target is the same throughout: PDVDLGDISGINAS, from the HR2 region of SARS-CoV-2 spike.

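Phage display of a naive human antibody library on the peptide gave the parent. These sequences belong to a second round, designed from the earlier measurements on random variants of the parent. Several design methods are mixed in this list. The scFvs were displayed on barcoded MATa yeast, the peptide on MATalpha yeast. The frequency of each diploid, read from paired DNA barcodes, reflects how well the two displayed proteins bind. A regression on co-assayed BCL2-family reference pairs converts the normalised counts of each replicate to an apparent Kd. Mating was done six times.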

Ab-14 is the parent antibody, in scFv form: VH, then a (GGGGS)3 linker, then VL. The light chain is unchanged in all variants.
VH: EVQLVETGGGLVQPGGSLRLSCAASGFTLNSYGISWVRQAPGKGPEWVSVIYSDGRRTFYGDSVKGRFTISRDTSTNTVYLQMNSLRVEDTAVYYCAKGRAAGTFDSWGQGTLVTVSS
VL: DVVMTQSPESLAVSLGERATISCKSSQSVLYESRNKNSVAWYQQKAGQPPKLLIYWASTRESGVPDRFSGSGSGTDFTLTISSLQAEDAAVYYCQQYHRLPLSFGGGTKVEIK

The parent's heavy chain CDRs are GFTLNSYGIS, VIYSDGRRTFYGDSVK, GRAAGTFDS; each variant's own CDRs replace them letter for letter.
Variants here have at most six changes.
Values are log10 of the apparent Kd in nM; lower means stronger binding.
Averages over replicates are reported, and they cover detected replicates only.
An entry "nd" has no value in the source: the pair was not observed among the diploids in any replicate. This suggests poor binding but is not conclusive.

With GFELNSYGIS | VIYSDGRRTFYVDSVK | GQTAGTFDA the result was 0.21 (6 of 6 replicates).
With GFTLNSYGIS | VIYSDGRRKFYLDSVK | GRAAGPFDS the result was nd (0 of 6 replicates).
With GFTLNSYGIS | VIYSDGRRTSYADSVK | GRAQGTFRS the result was nd (0 of 6 replicates).
With GFTLNSYGIS | VIYSDGRRTFYGDSVK | GRIYGTFDS the result was nd (0 of 6 replicates).
With GFTLDSYGIS | VIYSDGRRTFYGDSVK | GNAAGTFDR the result was 1.78 (2 of 6 replicates).
With GFDLNSYGIS | VIYSDGRRTAYGDSVK | GRQAGTFDT the result was 1.20 (4 of 6 replicates).
With GFTLNSYGIS | VIYADGLRTFYGDSVK | GRAYGTNDS the result was 0.24 (6 of 6 replicates).
With GITLNSYGIS | VIYSDGRRTFYGDSVK | GRAAGTFDQ the result was 1.68 (1 of 6 replicates).
With GFTWNSYGIS | VIYSCGRRTFYDDSVK | NQLAGTFDS the result was nd (0 of 6 replicates).
With GFTLNSYGIS | VIYSDGRRTFYSDSVK | GKEAGTFFS the result was 1.79 (1 of 6 replicates).
With GFELNSYGIS | VIYSDGRRTAYGDSVK | GRQAGTFDT the result was 0.60 (6 of 6 replicates).
With GFTLNSYGIS | VIYSDGRRTFYTDSVK | GEAAGTFDS the result was 1.09 (6 of 6 replicates).
With WFDLNSYGIS | VIYSDGRRTFYADSVK | GNAAGTFDS the result was 1.70 (6 of 6 replicates).
With GFDLNSYGIS | VIYSDGRRTFYGDSVK | GRAAAIYDS the result was nd (0 of 6 replicates).
With GFTLNEYGIS | VIYSDGRRTFYGDSVK | GRAAVTFDM the result was nd (0 of 6 replicates).
With GFTLNSYGIS | VIYSDGKRTFYRDSVK | GRAKGTFDS the result was nd (0 of 6 replicates).
With GFDLNSYGIS | VIYSDGLRTFYVDSVK | GRQAGTFDS the result was 0.97 (6 of 6 replicates).
With GFTLNSYGIS | VIYSDGRRTFYGDSVK | GRAAGTFDQ the result was 2.03 (5 of 6 replicates).
With GFSLNSYGIS | VIYSDGRRTFYGDSVK | GNQAGTFDS the result was 0.34 (6 of 6 replicates).
With GFDLNSYGIS | VIYSDGRRTFYGDSVK | GSAAGTFDS the result was 0.68 (6 of 6 replicates).
With GFDLNSYGIS | VIYSDGRRTFYGDSVK | GCTAGTFDS the result was 0.62 (6 of 6 replicates).
With GFTLNSYGIS | VIYSDGRRTFYSDSVK | GKMAGTFDT the result was 1.12 (4 of 6 replicates).
With GFQLNEYGIS | VIYSDGRRTFYGDQVK | GQAAGTFDD the result was 0.55 (1 of 6 replicates).
With GFTLESYGIS | VIYSDGRRTFYKDSVK | GRAAGTFDS the result was 1.19 (4 of 6 replicates).
With PFDLNSYGIS | VIYSDGRRTFYVDSVK | GRQAGTFDS the result was 2.50 (3 of 6 replicates).
With GFDLNSYGIS | VIYSDGGRTFYGDSVK | GRAAGWFNV the result was nd (0 of 6 replicates).
With GFWLNSYGIS | VIYFDGWRTFYGDSVK | GRAAGAFDS the result was 1.51 (1 of 6 replicates).
With GFTLNDYGIS | VIYSDGKRTFYGDSVK | GRAAGTFDS the result was 0.76 (6 of 6 replicates).
With GFTLNNYGIS | VIYSDGRRTFYSDSVK | GQDAGTFDS the result was nd (0 of 6 replicates).
With GFTLNSYGIS | VIYSDGRRTFYSDSVK | GGAAGTFDS the result was nd (0 of 6 replicates).
With GFTLNEYGIS | VIYSDGRRTFYYDSVK | GRFAGTFDT the result was nd (0 of 6 replicates).
With KFTLNSYGIS | VIYSDGRRTFYSDSVK | GRAAGTFRS the result was 2.04 (4 of 6 replicates).
With GFDLNEYGIS | VIYADGRRTFYKDSVK | GEAAGTFDL the result was -0.29 (6 of 6 replicates).
With GFTLDSYGIS | VIYADGRRTFYGDSVK | GRAAGTFCS the result was 0.45 (6 of 6 replicates).
With GFTLNSYGIS | VIYSDGRVTFYDDSVK | GQLAGTFDS the result was nd (0 of 6 replicates).
With GFDLNSYGIS | VHYSDGRVTRYGDSVK | GRAAGWFNS the result was nd (0 of 6 replicates).
With PFTLESYGIS | VIYADGRRTFYGDSVK | GRAAGTFDS the result was 1.61 (5 of 6 replicates).
With GFTLNSYGIS | VIYSDGRRTFYADSVK | GEAAGTFRS the result was nd (0 of 6 replicates).
With GFTMNSYGIS | VIYSDGRRTFYGDSVK | GSAAGTFDS the result was 1.37 (2 of 6 replicates).
With GFTLNSYGIS | VIYSDWRRTFYGDSVK | GRDAGTFDS the result was nd (0 of 6 replicates).
With GFSLNDYGIS | VIYSDGRRTFYGDSVK | GRQAGTFES the result was 2.11 (3 of 6 replicates).

Extract of 2 entries:

{"CDR-H1": "GFTLNSYGIS", "CDR-H2": "VIYSDGKRTFYRDSVK", "CDR-H3": "GRAKGTFDS", "log10 Kd (nM), mean": "nd", "detected": "0 of 6"}
{"CDR-H1": "GFTLNSYGIS", "CDR-H2": "VIYSDGRRTFYGDSVK", "CDR-H3": "GRAAGTFDQ", "log10 Kd (nM), mean": "2.03", "detected": "5 of 6"}

The authors averaged sequences with at least three values out of six and counted those with two or fewer as poor binders.
The range of this assay differs from that of the first round, and the authors advise against merging the two.
Of ten entries with the parent sequence, four were seen in most replicates (averages 0.34 to 2.37), three in one and three in none, so single entries are noisy.
Empty control strains, which show no peptide, gave a signal in 1% of pairings with all heavy chain designs; the median was 2.08 and 95% of these signals were weaker than 0.84. No background was subtracted.